Source: patent US11004539B2, “Predicting metabolic side effects of transported drugs” (The Regents of the University of California, priority 2016, dated 2021)

Target: T1, OAT3 (Mus musculus, UniProt O88909)
T1 sequence (O88909 1-537): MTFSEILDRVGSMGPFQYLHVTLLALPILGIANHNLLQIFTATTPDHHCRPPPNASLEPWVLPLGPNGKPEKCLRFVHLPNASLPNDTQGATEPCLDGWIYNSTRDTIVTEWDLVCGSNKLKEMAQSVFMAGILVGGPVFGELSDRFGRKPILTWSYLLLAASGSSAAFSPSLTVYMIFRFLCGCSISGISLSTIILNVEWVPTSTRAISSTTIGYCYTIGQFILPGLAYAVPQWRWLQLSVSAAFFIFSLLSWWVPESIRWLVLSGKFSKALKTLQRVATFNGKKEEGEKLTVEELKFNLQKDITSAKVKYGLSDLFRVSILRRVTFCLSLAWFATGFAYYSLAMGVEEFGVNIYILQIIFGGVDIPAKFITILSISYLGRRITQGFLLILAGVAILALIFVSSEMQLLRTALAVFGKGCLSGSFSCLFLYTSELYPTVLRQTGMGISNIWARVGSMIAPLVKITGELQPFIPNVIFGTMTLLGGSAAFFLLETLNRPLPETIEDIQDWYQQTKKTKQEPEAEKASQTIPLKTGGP
Assay: Plasma metabolomics profiling of Oat3KO versus wild-type mice
Conditions: Oat3KO vs wild type mice

Substance | change in plasma of the Oat3KO
phenyllactate | significantly increased
deoxycholate | significantly increased
